Biological target: immobilized Aβ fibrils (Homo sapiens, UniProt P05067)
Test: FAC-MS assay of free Aβ monomer (indicator) binding to immobilized Aβ fibrils in the presence of test compounds
Conditions: FAC-MS shift of free Aβ monomer breakthrough on immobilized Aβ fibrils in presence of the compound; screen of Table 2

The chains behind the UniProt entries cited, without tags or fusion partners. Residues count along the entry.
UniProt P05067, 672-713 limits assumed: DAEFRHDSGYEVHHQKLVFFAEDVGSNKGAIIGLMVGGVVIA

NNc1nc2nonc2nc1NN
Aβ Shift: 0

Source: patent publication US20110028719A1, “SCREENING METHODS FOR AMYLOID BETA MODULATORS” (priority 2006, published 2011)
